Data on four molecules can be found in ChEMBL document CHEMBL5625274, “Improved synthesis, molecular modeling and anti-inflammatory activity of new fluorinated dihydrofurano-naphthoquinone compounds” (Bioorg Med Chem Lett, 2024).

The test system of experiment [1] is RAW264.7. Nature of the experiment: Antiinflammatory activity in LPS activated mouse RAW264.7 cells assessed as reduction in IL-1beta level. It is filed as functional, cell-based. Particulars: dose 2-8 µg/ml.
The test system of experiment [2] is RAW264.7. The experiment is described as follows: Antiinflammatory activity in LPS activated mouse RAW264.7 cells assessed as reduction in IL-6 level. Particulars: dose 2-8 µg/ml. It is filed as functional, cell-based.

As for `COc1ccc([C@@H]2C3=C(O[C@H]2C(=O)c2ccccc2)C(=O)c2ccccc2C3=O)cc1F`, the Activity result in the experiment on RAW264.7 [1] and with RAW264.7 [2] was “Dose-Dependent Effect” in each case.
Regarding `COc1c(F)cc([C@@H]2C3=C(O[C@H]2C(=O)c2ccccc2)C(=O)c2ccccc2C3=O)cc1F`, the Activity result in the experiment with RAW264.7 [1] and with RAW264.7 [2] was “Dose-Dependent Effect” each time.
For the molecule `COc1cc(F)c([C@@H]2C3=C(O[C@H]2C(=O)c2ccccc2)C(=O)c2ccccc2C3=O)cc1F`, the Activity result in the experiment on RAW264.7 [1] and in the experiment on RAW264.7 [2] was “Dose-Dependent Effect” in each case.
Regarding `O=C1C2=C(C(=O)c3ccccc31)[C@@H](c1ccc(F)cc1)[C@H](C(=O)c1ccccc1)O2`, the Activity entry in the experiment with RAW264.7 [1] and in the experiment on RAW264.7 [2] was “Dose-Dependent Effect” each time.
